Bioassay records deposited in PubChem BioAssay by ICCB-Longwood Screening Facility, Harvard Medical School.
A selection: hits, their analogues and other compounds. The true share with any hit is near 0.46%.
GIV Gai3 FP = inhibitors of GIV GBA-motif binding to rat Galpha-i3; P08753; Galpha-i3/FITC-GIV peptide fluorescence polarization, 90 min; hits give low values; scaled: aluminum fluoride 0%, vehicle 100%; percent of control (FP), % (test concentration not listed); actives 0.42% (n = 210,000); AID 1224905;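 active = replicate mean at 85% of control or lower, very high polarization wells dropped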;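 also: wells of about 15 µL received 100 nL stock; the first replicate is given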
HCMV NEC inh = inhibitors of HCMV UL50-UL53 nuclear egress complex interaction; HTRF UL50-UL53 interaction, normalized percent inhibition; 190,000 tested, 0.15% active; AID 1918969; inhibition, % (no concentration beside the values); in the data active means inhibition above about 27%, passing the limit was not always enough
GIV-Gai FP conf = confirmation of inhibitors of GIV binding to rat Galpha-i3 | shares compounds with GIV Gai3 FP | FITC-GIV peptide binding to Galphai3, fluorescence polarization; active compounds read low | fluorescence polarization, mP at 100 µM | 580 tested, 38% active;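 active means inhibition score of 15 or more, meaning 100 minus mean polarization as percent of control over three replicates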;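 further: lower mP means peptide displaced from Galphai3 so more inhibition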
GIV-Gai AS conf = GIV-Galpha-i3 inhibition, AlphaScreen confirmation; shares compounds with GIV Gai3 FP; AlphaScreen Galphai3-GIV binding, purified proteins, 90 min; active compounds read low; AlphaScreen counts at 100 µM; 580 tested, 39% active; AID 1259351;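 active means inhibition score at or above a set limit, where the score is 100 minus the three-replicate mean percent of control signal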
Starred values were filed as active, the others as inactive; . = not tested or not shown; ! = not active in a repeat.

Codes – A = GIV Gai3 FP; B = HCMV NEC inh; C = GIV-Gai FP conf; D = GIV-Gai AS conf
CC1(C)SC2C(NC(=O)C(N)c3ccccc3)C(=O)N2C1C(=O)O (stereo not given)
  A: .; B: -54.8; C: .; D: .

O=C1C(Cc2ccc(-c3nn[nH]n3)cc2)=C(c2ccccc2)S(=O)(=O)c2ccccc21
  A: 85.9; B: -20.7; C: 62.1; D: 36755*

O=C1c2ccccc2S(=O)(=O)c2cc(-c3nn[nH]n3)ccc21
  A: 97.0; B: -209.1; C: .; D: .

CC(C)Nc1ncnc2scc(-c3ccccc3)c12
  A: 103.6; B: -14.2; C: .; D: .

O=C(O)c1cccc(Nc2ncnc3scc(-c4ccccc4)c23)c1
  A: 71.8*; B: -10.8; C: 81.7; D: 29755

Cc1cc2nc3c4cccc5cccc(c(=O)n3c2cc1C)c54
  A: 100.6; B: .; C: .; D: .

Nc1nc2c3cccc4cccc(c(=O)n2n1)c43
  A: 79.7*; B: -119.5; C: 74.9; D: 24808

CC(O)CNc1c[nH]c(=O)[nH]c1=O (stereo not given)
  A: 100.3; B: -20.6; C: .; D: .

O=c1[nH]cc(NCCO)c(=O)[nH]1
  A: 66.0*; B: -7.3; C: 43.6*; D: 47941

O=C(O)c1cccc(-n2cccc2C=C2C(=O)c3ccccc3C2=O)c1
  A: 107.5; B: .; C: .; D: .

Laid out differently: entries from further up
> Cc1cc2nc3c4cccc5cccc(c(=O)n3c2cc1C)c54
  GIV Gai3 FP = 100.6	HCMV NEC inh = .	GIV-Gai FP conf = .	GIV-Gai AS conf = .
> Nc1nc2c3cccc4cccc(c(=O)n2n1)c43
  GIV Gai3 FP = 79.7*	HCMV NEC inh = -119.5	GIV-Gai FP conf = 74.9	GIV-Gai AS conf = 24808

Continuation.
Codes – A = GIV Gai3 FP; B = HCMV NEC inh; C = GIV-Gai FP conf; D = GIV-Gai AS conf
O=C1C(=Cc2cccn2-c2ccc(O)cc2)C(=O)c2ccccc21
  A: 72.2*; B: .; C: 6.07*; D: 19282*

O=C1C=CC(=O)C(c2ccc(C(=O)O)cc2)=C1
  A: 69.8*; B: -7.6; C: 55.3*; D: 2443*

CC(C)c1ccc(C2=CC(=O)C=CC2=O)cc1
  A: 107.5; B: -9.8; C: .; D: .

CCCCC(=O)Cc1ccco1
  A: 127.7; B: -138.2; C: .; D: .

CN1CCCc2cc(CN)ccc21
  A: 69.5*; B: -0.5; C: 53.6*; D: 4022*

CCOc1ccc(CC(=O)NCC(c2ccc3c(c2)CCCN3C)N2CCCC2)cc1 (stereo not given)
  A: 105.2; B: -12.7; C: .; D: .

Cc1ccc(S(=O)(=O)c2nc3ccccc3nc2NCCc2ccccc2)cc1
  A: 78.0*; B: -24.3; C: 65; D: 42344

COc1ccccc1CNc1nc2ccccc2nc1S(=O)(=O)c1ccc(C)cc1
  A: 114.5; B: -22.0; C: .; D: .

O=C(NCCCN1CCCCC1)c1ccc2c(=O)n3c(nc2c1)CCCCC3
  A: 101.2; B: .; C: .; D: .

Cc1ccc(C)c(NC(=O)c2cccc(S(=O)(=O)N3CCCC3)c2)c1
  A: .; B: 9.5; C: .; D: .

Cc1ccc(C(=O)Nc2ccc(S(=O)(=O)O)c3cc(S(=O)(=O)O)cc(S(=O)(=O)O)c23)cc1NC(=O)c1cccc(NC(=O)Nc2cccc(C(=O)Nc3cc(C(=O)Nc4ccc(S(=O)(=O)O)c5cc(S(=O)(=O)O)cc(S(=O)(=O)O)c45)ccc3C)c2)c1
  A: 76.2*!; B: -50.1; C: 61.2*; D: 12181*

Cc1ccc(S(=O)(=O)NCc2ccc(/C=N/NC(=O)c3ccco3)o2)cc1
  A: 94.8; B: -55.5; C: .; D: .

COc1ccc(/C=C2\N=C(c3ccc(Cl)cc3)N(c3cccc(C)c3)C2=O)cc1OC
  A: 116.5; B: .; C: .; D: .

COc1ccc(/C=C2\N=C(c3ccc(Cl)cc3)N(c3ccccc3)C2=O)cc1OC
  A: 81.4*; B: .; C: 81.1; D: 50234

COc1ccc(/C=C2\N=C(c3ccc(Cl)cc3)N(c3ccc(C)cc3C)C2=O)cc1OC
  A: 108.6; B: .; C: .; D: .

COc1ccc(/C=C2\N=C(c3ccc(Cl)cc3)N(c3cccc(F)c3)C2=O)cc1OC
  A: 87.6; B: .; C: 79.3; D: 49008

COC(=O)C1C(c2ccc(OC)cc2)C(C(=O)OC)S(=O)(=O)CS1(=O)=O (stereo not given)
  A: 98.8; B: -7.4; C: .; D: .

Cn1cnc(S(=O)(=O)N2CCCC(C(=O)NCc3ccc(F)cc3)C2)c1 (stereo not given)
  A: 101.4; B: .; C: .; D: .

Cc1nn(Cc2ccc(F)cc2)c2sc(C(=O)Nc3ccc(S(=O)(=O)N4CCCC4)cc3)cc12
  A: .; B: -17.4; C: .; D: .

CN(Cc1ccccc1)C(=O)c1ccc(CSc2nc3cccnc3n2Cc2ccccc2)cc1
  A: 109.0; B: .; C: .; D: .

A second format for 3 compounds above.
Cc1ccc(C(=O)Nc2ccc(S(=O)(=O)O)c3cc(S(=O)(=O)O)cc(S(=O)(=O)O)c23)cc1NC(=O)c1cccc(NC(=O)Nc2cccc(C(=O)Nc3cc(C(=O)Nc4ccc(S(=O)(=O)O)c5cc(S(=O)(=O)O)cc(S(=O)(=O)O)c45)ccc3C)c2)c1
  GIV Gai3 FP: 76.2*!
  HCMV NEC inh: -50.1
  GIV-Gai FP conf: 61.2*
  GIV-Gai AS conf: 12181*
CN(Cc1ccccc1)C(=O)c1ccc(CSc2nc3cccnc3n2Cc2ccccc2)cc1
  GIV Gai3 FP: 109.0
  HCMV NEC inh: .
  GIV-Gai FP conf: .
  GIV-Gai AS conf: .
COc1ccc(/C=C2\N=C(c3ccc(Cl)cc3)N(c3ccccc3)C2=O)cc1OC
  GIV Gai3 FP: 81.4*
  HCMV NEC inh: .
  GIV-Gai FP conf: 81.1
  GIV-Gai AS conf: 50234

Next part.
Codes – A = GIV Gai3 FP; B = HCMV NEC inh; C = GIV-Gai FP conf; D = GIV-Gai AS conf
Cc1cc(C)n(Cc2ccc(C(=O)O)cc2)n1
  A: .; B: -13.6; C: .; D: .

Cc1ccc(C)n1CCC(=O)O
  A: 71.4*; B: -0.8; C: 60.3; D: 3780*

Cc1ccn(CCC(=O)O)n1
  A: 102.9; B: -23.9; C: .; D: .

Cc1ccc(C)n1Cc1ccc(C(=O)O)cc1
  A: 33.2*; B: 70.4*; C: 48.2*; D: 3139*

COc1ccccc1/C=C/c1onc(C)c1S(=O)(=O)N1CCC(C(=O)N2CCC(C)CC2)CC1
  A: 108.4; B: .; C: .; D: .

CCC(C)NC(=O)c1ccc(NC(=O)C2=CSCCO2)cc1 (stereo not given)
  A: 99.9; B: -31.7; C: .; D: .

CN1CCN(C(=O)c2nc(-c3ccccc3)n(-c3ccc(Cl)cc3)n2)CC1
  A: 93.3; B: -20.9; C: .; D: .

Cc1ccc(Nc2nc(Cl)nc(N(C)C#N)n2)cc1
  A: 102.8; B: -7.7; C: .; D: .

O=C(CSc1ncn(-c2ccccc2)n1)c1ccc(Cl)cc1
  A: 99.6; B: -40.8; C: .; D: .

Cc1ccn2c(=O)cc(COc3ccc(NC(=O)Nc4ccc(Cl)cc4)cc3)nc2c1
  A: 82.5*; B: .; C: 75.6; D: 24165

Next part
compound | GIV Gai3 FP | HCMV NEC inh | GIV-Gai FP conf | GIV-Gai AS conf
Cc1c(Cl)cccc1NC(=O)Nc1cccc(OCc2cc(=O)n3ccccc3n2)c1 | 99.0 | . | . | .
Cc1ccn2c(=O)cc(COc3ccc(NC(=O)Nc4cccc(Cl)c4)cc3)nc2c1 | 108.3 | . | . | .
Cc1ccn2c(=O)cc(COc3cccc(NC(=O)Nc4cccc(Cl)c4C)c3)nc2c1 | 88.3 | . | 74.7 | 35234
CC(C)(C)OC(=O)N1CCCC1C(=O)Oc1ccc2c(c1)oc(=O)c1ccccc12 (stereo not given) | . | -19.4 | . | .
CCc1nnc(NC(=O)c2sc3nc(C)cc(C(F)(F)F)c3c2N)s1 | 121.0 | . | . | .
Cc1cc2c(cc1C)N(CC(=O)NCc1ccco1)C(=O)C1CCCC1=N2 (stereo not given) | 103.7 | -17.5 | . | .
CCn1c(=O)c(N2CCN(C(=O)c3cccc(C)c3)CC2)nc2ccccc21 | 104.8 | -14.3 | . | .
CCn1c(C)c(CN2CCC(C(=O)N3CCCC3)CC2)c2ccccc21 | 102.2 | . | . | .
CCn1c2c(c3ccccc31)CN(C(=O)C1CCC1)CC2 | 51.2* | . | 19.5* | 14471*
Cc1ccc(S(=O)(=O)c2c(C)nn(C(C)(C)C)c2OC(=O)C(C)C)cc1 | . | -0.6 | . | .
CCCCSc1nnc2c(n1)OC(/C=C/c1ccccc1[N+](=O)[O-])Nc1ccccc1-2 (stereo not given) | 79.5* | -31.1 | 60.4 | 33401*
CCOC(=O)COc1ccccc1C1Nc2ccccc2-c2nnc(SC)nc2O1 (stereo not given) | 105.5 | -26.3 | . | .
CCCSc1nnc2c(n1)OC(c1ccco1)Nc1ccccc1-2 (stereo not given) | 78.0* | -35.9 | 60.1 | 5688*
CCSc1nnc2c(n1)OC(c1cc(Br)ccc1OC)Nc1ccccc1-2 (stereo not given) | 105.8 | -4.3 | . | .
CCCSc1nnc2c(n1)OC(c1ccccc1)Nc1ccccc1-2 (stereo not given) | 109.1 | -12.1 | . | .
CCSc1nnc2c(n1)OC(c1ccc(Br)cc1)Nc1ccccc1-2 (stereo not given) | 23.6* | -9.7 | 29.9* | 29425
CCCSc1nnc2c(n1)OC(c1ccccc1OCC(=O)OCC)Nc1ccccc1-2 (stereo not given) | 21.4* | -16.1 | 59.3 | 34096*
CSc1nnc2c(n1)OC(/C=C/c1ccccc1[N+](=O)[O-])Nc1ccccc1-2 (stereo not given) | 105.2 | 3.1 | . | .
CCc1cccc(NC(=O)C(Cc2ccccc2)NC(=O)C2CCC(C)CC2)c1 (stereo not given) | 100.7 | . | . | .
O=C(NCCCN1CCN(C2CCCCC2)CC1)c1cc(=O)n2c(nc3ccccc32)s1 | 96.1 | -32.6 | . | .
CCOC(=O)c1c(C)c(C(=O)Nc2cccc(C)c2)c(C)n1C | 106.2 | 2.1 | . | .
